The chains behind the UniProt entries cited, without tags or fusion partners.
UniProt P14842, whole entry: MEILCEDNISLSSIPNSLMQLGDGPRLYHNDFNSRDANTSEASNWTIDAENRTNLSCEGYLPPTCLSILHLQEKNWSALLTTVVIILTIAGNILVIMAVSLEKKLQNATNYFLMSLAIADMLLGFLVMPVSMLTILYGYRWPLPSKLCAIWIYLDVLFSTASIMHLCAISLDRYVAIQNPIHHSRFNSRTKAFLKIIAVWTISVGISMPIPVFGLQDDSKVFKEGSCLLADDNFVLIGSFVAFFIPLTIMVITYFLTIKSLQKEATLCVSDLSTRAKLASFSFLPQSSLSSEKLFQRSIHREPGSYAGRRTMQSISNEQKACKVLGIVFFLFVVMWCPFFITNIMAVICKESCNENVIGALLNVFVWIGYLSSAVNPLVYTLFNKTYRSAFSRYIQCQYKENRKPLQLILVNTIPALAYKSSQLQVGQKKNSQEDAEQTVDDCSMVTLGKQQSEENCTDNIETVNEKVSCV

In patent US5658916A, “Drug active on the central nervous system, a process for the preparation thereof and pharmaceutical compositions containing it” (Vita-Invest, S.A., priority 1994, dated 1997):

Biological target: 5HT2 receptors (Rattus norvegicus, UniProt P14842)
Experiment: Displacement of 3H-ketanserine binding to 5HT2 receptors (front cortex of rat brain)

With `Cc1nc2sccn2c(=O)c1CCN1CCC(=C(c2ccc(F)cc2)c2ccc(F)cc2)CC1` [Ritanserine] the Ki was 2.6 nM.
